From patent US20240124424A1, “SOLID FORMS OF (5S)-CYCLOPROPYL-5-[3-[(3S)-4-(3,5-DIFLUOROPHENYL)-3-METHYL-PIPERAZIN-1-YL]-3-OXO-PROPYL]IMIDAZOLIDINE-2,4-DIONE” (Galapagos NV, priority 2020, published 2024)

Tested on: mdx mice
Assay: Duchenne muscular dystrophy mdx model
Format: in vivo
Set-up: unit not given here
Settings: after treatment, mean; Cpd 1 120 mg/kg p.o. b.i.d., prednisolone 5 mg/kg p.o. qd
Description: The male mdx mice is the most used animal model for pre-clinical Duchenne muscular dystrophy (DMD) research.
Five-week-old mdx mice (Animal Resource Centre; Perth, WA, Australia) were allowed to acclimatise for 1 week to their surroundings, before being randomly allocated to one of four treatment groups or an untreated control group (15 animals per group) as described in the table below. At the start of the study, these groups were matched for mouse body weight.
The untreated control mdx mice were restrained throughout the study. Following 1-week acclimatisation, this group of mice also have baseline measurements of grip strength and body composition taken, which were repeated at ˜10 weeks and ˜15 weeks of age. Furthermore, these mice were weighed on a regular basis and their urine was collected at ˜6, ˜10 and ˜15 weeks of age. […]
Bone structure was evaluated via μCT analysis of cortical and trabecular bone on the femur.

## C[C@]12C=CC(=O)C=C1CC[C@@H]1[C@@H]2[C@@H](O)C[C@@]2(C)[C@H]1CC[C@]2(O)C(=O)CO [prednisolone, reference compound]
  Tissue volume: 2.34
